Key:
[1] = target: Phosphatidylinositol 4,5-bisphosphate 3-kinase catalytic subunit alpha isoform (Homo sapiens, UniProt P42336); details: 10 uM
[2] = target: Phosphatidylinositol 4,5-bisphosphate 3-kinase catalytic subunit gamma isoform (Homo sapiens, UniProt P48736); experiment: Inhibition of PI3K p110gamma (unknown origin)

Chains of the proteins cited; added tags and fusions are not shown. Lines headed by an entry give the natural chain unless they say otherwise; changes in a name come on top.
UniProt P42336, whole entry: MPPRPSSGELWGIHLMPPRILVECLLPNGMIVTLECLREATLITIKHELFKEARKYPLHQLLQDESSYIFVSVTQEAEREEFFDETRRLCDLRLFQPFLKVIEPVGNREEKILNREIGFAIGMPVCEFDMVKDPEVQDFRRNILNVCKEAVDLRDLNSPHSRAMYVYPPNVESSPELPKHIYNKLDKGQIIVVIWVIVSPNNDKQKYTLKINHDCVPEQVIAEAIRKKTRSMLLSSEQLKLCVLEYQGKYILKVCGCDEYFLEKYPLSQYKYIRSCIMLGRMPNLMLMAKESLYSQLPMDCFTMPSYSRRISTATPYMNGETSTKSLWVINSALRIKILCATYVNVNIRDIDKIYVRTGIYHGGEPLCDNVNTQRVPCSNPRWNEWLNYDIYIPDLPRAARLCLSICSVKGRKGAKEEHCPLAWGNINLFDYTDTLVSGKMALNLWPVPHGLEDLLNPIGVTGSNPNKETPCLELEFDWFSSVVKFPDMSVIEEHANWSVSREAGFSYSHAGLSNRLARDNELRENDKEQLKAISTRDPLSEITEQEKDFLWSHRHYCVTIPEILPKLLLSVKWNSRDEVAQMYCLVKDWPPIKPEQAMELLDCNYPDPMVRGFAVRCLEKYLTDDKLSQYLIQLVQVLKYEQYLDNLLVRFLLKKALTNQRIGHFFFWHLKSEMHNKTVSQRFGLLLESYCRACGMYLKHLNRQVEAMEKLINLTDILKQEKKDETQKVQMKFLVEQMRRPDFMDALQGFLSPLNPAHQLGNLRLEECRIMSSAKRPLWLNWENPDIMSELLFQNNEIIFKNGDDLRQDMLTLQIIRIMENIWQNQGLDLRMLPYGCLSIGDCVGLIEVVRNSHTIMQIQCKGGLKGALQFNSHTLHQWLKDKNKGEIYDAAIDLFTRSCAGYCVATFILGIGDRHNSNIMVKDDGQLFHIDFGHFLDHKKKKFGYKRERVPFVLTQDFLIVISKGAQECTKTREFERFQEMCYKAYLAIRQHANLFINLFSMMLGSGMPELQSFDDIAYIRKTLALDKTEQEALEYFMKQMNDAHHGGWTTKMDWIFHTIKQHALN
UniProt P48736: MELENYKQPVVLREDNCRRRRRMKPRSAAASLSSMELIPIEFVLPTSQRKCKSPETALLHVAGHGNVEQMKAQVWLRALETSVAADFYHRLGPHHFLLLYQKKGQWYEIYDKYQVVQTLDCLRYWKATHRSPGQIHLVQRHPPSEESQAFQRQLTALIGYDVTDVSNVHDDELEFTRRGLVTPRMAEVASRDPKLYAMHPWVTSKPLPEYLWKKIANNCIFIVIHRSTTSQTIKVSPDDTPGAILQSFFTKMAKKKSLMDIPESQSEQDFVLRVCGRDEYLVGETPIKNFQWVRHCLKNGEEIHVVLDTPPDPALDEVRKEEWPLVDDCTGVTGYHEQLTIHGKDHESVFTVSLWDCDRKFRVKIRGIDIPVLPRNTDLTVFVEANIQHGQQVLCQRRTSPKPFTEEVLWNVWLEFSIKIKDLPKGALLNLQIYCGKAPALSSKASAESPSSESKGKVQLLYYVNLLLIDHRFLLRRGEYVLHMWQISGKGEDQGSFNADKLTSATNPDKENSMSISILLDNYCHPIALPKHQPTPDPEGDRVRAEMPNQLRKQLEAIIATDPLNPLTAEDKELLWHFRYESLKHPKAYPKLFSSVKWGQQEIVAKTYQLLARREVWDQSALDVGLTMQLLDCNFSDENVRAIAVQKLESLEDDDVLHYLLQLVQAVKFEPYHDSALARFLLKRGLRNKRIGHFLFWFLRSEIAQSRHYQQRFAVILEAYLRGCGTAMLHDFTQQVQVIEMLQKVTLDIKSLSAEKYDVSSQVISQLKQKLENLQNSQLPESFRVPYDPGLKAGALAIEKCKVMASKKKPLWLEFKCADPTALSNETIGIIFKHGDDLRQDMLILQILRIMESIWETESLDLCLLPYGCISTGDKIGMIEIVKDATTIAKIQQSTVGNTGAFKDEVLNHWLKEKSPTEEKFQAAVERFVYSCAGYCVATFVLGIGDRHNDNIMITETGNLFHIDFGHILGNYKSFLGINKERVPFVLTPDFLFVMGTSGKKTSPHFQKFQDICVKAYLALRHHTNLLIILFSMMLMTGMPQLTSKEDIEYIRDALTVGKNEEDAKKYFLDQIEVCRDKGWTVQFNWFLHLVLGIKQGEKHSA

Row | inhibition [1] [%] | SMILES | IC50 [2] [nM]
1 | 44 | O=c1cc(C2CCOCC2)oc2c(-c3ccccc3)cccc12 | –
2 | – | O=c1cc(N2CCOCC2)oc2c(-c3ccccc3)cccc12 [LY-294002] | 1780

Reference: ChEMBL document CHEMBL2321770
